Experimental findings from US11427783B2, “Perfuming compositions” (Firmenich SA, priority 2016, dated 2022) are described below.

In general, logP refers to the decadic logarithm of the partition coefficient of the neutral form, usually between octanol and water. Higher therefore signals higher lipophilicity.

A short description of this series: physchem.

Take `COC(=O)Cc1ccccc1` [METHYL PHENYLACETATE]: the log partition coefficient (logP) is 1.98.
